# Values of other authors in patent US20220050096A1, “ANALYTE-SENSITIVE PROBES AND CONTACT LENS FOR DIAGNOSIS OF OCULAR PATHOLOGIES” (University Of Maryland, Baltimore, priority 2020, published 2022).
# Settings: cited from earlier work
substance,measurement,setting,value
"2′,7′-bis(2-carboxyethyl)-5(6)-carboxyfluorescein [BCECF]",Lifetime (ns) τA,A form (value in parentheses),3.17 ns
same,Lifetime (ns) τB,B form,4.49 ns
same,QB,B form,~0.7
same,lifetime at high pH,high pH,3.9
same,lifetime at low pH,low pH,3.0
